Assay results as given in PMC3177607 (Bioorganic & medicinal chemistry letters, 2008).

Protein sequences, listed by entry. Tags and fused reporters are not part of them. Lines headed by an entry give the natural chain unless they say otherwise; changes in a name come on top.
UniProt P08482: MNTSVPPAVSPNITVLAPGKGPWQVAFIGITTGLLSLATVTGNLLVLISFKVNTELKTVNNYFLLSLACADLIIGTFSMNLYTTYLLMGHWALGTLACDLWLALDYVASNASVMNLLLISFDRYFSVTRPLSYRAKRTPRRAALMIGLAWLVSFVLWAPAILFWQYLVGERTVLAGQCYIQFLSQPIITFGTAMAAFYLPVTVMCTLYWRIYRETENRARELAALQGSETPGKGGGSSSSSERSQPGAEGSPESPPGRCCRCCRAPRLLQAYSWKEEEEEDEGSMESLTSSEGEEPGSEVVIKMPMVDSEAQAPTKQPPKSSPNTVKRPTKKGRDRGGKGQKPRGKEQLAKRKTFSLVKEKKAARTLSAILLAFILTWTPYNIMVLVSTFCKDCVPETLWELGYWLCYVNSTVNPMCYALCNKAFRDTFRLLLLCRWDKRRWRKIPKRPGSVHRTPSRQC
UniProt P20309, whole entry: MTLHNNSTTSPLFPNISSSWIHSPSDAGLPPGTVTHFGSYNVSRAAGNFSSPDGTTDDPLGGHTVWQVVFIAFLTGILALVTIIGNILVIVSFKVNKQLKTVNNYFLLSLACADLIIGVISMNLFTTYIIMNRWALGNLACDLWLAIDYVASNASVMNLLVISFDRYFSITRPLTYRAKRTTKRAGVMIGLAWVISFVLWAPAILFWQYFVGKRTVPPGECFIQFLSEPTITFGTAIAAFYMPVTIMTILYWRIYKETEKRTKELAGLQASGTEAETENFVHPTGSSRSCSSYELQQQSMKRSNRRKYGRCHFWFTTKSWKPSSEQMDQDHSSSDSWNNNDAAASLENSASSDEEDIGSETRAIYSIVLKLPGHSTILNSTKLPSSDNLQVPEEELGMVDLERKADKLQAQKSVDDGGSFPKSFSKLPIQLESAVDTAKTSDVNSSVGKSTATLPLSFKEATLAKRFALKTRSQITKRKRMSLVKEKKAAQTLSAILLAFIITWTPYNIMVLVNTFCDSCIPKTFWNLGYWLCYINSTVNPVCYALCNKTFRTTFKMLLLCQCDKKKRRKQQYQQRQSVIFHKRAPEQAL

What was measured:
M1 = M1 (Rattus norvegicus, UniProt P08482); experiment: M1 functional activation, concentration-response; type: cell-based; conditions: activation of M1 relative to 100% response of CCh
M3 = M3 (Homo sapiens, UniProt P20309); experiment: M3 functional activation; type: cell-based; conditions: read-out: M3 EC50

CCOC(=O)N1CCC(N2CCC(n3c(=O)[nH]c4ccccc43)CC2)CC1 [ethyl carbamate congener]
%CCh Max (M1): 82.6% | EC50 (M3): 113 nM
